Values quoted from earlier work as cited in US20220184087A1, “METHODS AND COMPOSITIONS RELATING TO TREATMENT OF CANCER” (The Penn State Research Foundation, priority 2019, published 2022).

The chains behind the UniProt entries cited, without tags or fusion partners.
UniProt Q00987, whole entry: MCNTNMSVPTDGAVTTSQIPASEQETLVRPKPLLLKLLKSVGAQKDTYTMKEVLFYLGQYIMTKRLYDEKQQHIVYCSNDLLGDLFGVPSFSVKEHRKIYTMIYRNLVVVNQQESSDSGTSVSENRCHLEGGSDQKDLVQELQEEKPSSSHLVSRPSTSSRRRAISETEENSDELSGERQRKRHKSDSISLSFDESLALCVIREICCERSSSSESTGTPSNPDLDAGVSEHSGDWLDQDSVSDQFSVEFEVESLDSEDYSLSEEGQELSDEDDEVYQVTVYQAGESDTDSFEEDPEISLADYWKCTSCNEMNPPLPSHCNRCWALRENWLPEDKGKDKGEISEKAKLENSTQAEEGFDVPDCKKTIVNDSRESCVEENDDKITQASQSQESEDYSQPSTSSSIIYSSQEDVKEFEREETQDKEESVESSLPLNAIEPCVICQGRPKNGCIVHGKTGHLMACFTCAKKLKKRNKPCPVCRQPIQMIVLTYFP

Target: p53-MDM2 and p53-MDM2-MDM4 complexes (Homo sapiens, UniProt Q00987)

inhibition of p53-MDM2 and p53-MDM2-MDM4 complexes: inhibits
SMILES: COc1ccc(C2=N[C@@H](c3ccc(Cl)cc3)[C@@H](c3ccc(Cl)cc3)N2C(=O)N2CCNC(=O)C2)c(OC(C)C)c1 [nutlin-3]
